Laboratory results published in US8951999B2, “Compounds” (Orexo AB, priority 2009, dated 2015).

Protein sequences, listed by entry. Tags and fused reporters are not part of them.
UniProt O14684, whole entry: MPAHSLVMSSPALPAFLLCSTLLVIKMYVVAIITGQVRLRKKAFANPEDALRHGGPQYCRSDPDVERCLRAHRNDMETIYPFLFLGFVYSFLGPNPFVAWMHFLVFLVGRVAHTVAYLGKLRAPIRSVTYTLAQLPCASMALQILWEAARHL

Biological target: recombinant human mPGES-1 (Homo sapiens, UniProt O14684)
Assay: Assay B: mPGES-1 enzyme assay (modified)
Conditions: read-out: mPGES-1 inhibitory effect IC50; biological assay B (all other compounds); PGH2 final conc. 2 μM, HTRF
Procedure: Assay B: mPGES-1 Enzyme Assay (Modified)
The aim of this assay is to determine the affinity of a test compound for the mPGES-1 enzyme.
47 μl of recombinant human mPGES-1 (˜0.5 μg protein/well) containing microsomal suspension in a buffer containing GSH, (2.5 mmol/L L-Glutathione reduced, dissolved in 0.1 mol/L Phosphat Buffer pH 7.4) is dispensed in a 384-well plate and thereafter 1 μl of the test compound(s) is/are added and incubated for 25 minutes at room temperature. The enzyme reaction is started by the addition of 2 ul PGH2 (final conc. 2 μM) dissolved in water-free Diglyme. […] In order to quantify the amount of PGE2 that has been formed, a homogenous time resolved fluorescent (HTRF) detecting of PGE2 has been performed using a commercially available kit from Cisbio according to the manufactures recommendation. […] After an incubation period of the plates over night, the fluorescence is measured by the use of an appropriate microplate reader.
The fluorescence of Europium cryptate (maxex=307 nm, maxem=620 nm) and d2-PGE2 (maxex=620 nm, maxem=665 nm) are measured.
The extent of the specific HTRF is measured as a ratio of the emission intensity at 665 nm vs. that at 620 nm at an excitation pulse of 320 nm. The quantification plate contains also wells with different concentrations of PGE2 as calibration curve for the calculation of the PGE2 concentrations from the HTRF ratio values. […]

SMILES: CC(C)(C)C(=O)NCc1ccc(Cl)c(C(=O)Nc2ccc(N3CCC(C(F)(F)F)CC3)c(C(=O)Nc3ccc(Br)cc3)c2)c1Cl
- IC50: 2 nM
